What was measured:
mouse leukemia L1210 = assay: Therapeutic effectiveness against mouse leukemia L1210 (survival time); settings: L1210, ip, 720 h, read-out: Prolongation of the survival time (% T/C)
Solubility = settings: stated by reference to MA 144-G1
[1] = system: RNA synthesis in L1210 cells; assay: RNA synthesis in cultured L1210 cells (14C incorporation); settings: Mus musculus, L1210, 1 h, read-out: % Inhibition, Synthesis of RNA
[2] = system: DNA synthesis in L1210 cells; assay: DNA synthesis in cultured L1210 cells (14C incorporation); settings: Mus musculus, L1210, 1 h, read-out: % Inhibition, Synthesis of DNA

In the case of `CC[C@@]1(O)C[C@H](O[C@H]2C[C@H](N(C)C)[C@H](O[C@H]3C[C@H](O)[C@H](OC4CCC(=O)C(C)O4)[C@H](C)O3)[C@H](C)O2)c2c(cc3c(c2O)C(=O)c2c(O)cccc2C3=O)[C@H]1C(=O)OC` (stereo partly drawn) [D-cinerulosyl-2-deoxy-L-fucosyl-L-rhodosaminyl-alkavinone], the response vs control in vivo at 0.15 mg/kg (mouse leukemia L1210) is reported as 101%, the response vs control in vivo at 0.3 mg/kg (mouse leukemia L1210) is reported as 118% and the response vs control in vivo at 0.6 mg/kg (mouse leukemia L1210) is reported as 130%. It also gave a response vs control in vivo at 1.25 mg/kg (mouse leukemia L1210) of 145%, a response vs control in vivo at 2.5 mg/kg (mouse leukemia L1210) of 215% and a response vs control in vivo at 5 mg/kg (mouse leukemia L1210) of 187%.
Compound `CC[C@@]1(O)C[C@H](O[C@H]2C[C@H](N(C)C)[C@H](O[C@H]3C[C@H](O)[C@H](OC4CCC(=O)C(C)O4)[C@H](C)O3)[C@H](C)O2)c2c(cc3c(c2O)C(=O)c2c(O)ccc(O)c2C3=O)[C@H]1C(=O)OC` (stereo partly drawn) [D-cinerulosyl-2-deoxy-L-fucosyl-L-rhodosaminyl-ε-pyrromycinone] has a response vs control in vivo at 0.15 mg/kg (mouse leukemia L1210) of 97%, a response vs control in vivo at 0.3 mg/kg (mouse leukemia L1210) of 108% and a response vs control in vivo at 0.6 mg/kg (mouse leukemia L1210) of 140%. For the same compound, the response vs control in vivo at 1.25 mg/kg (mouse leukemia L1210) was 164%, the response vs control in vivo at 2.5 mg/kg (mouse leukemia L1210) was 130% and the response vs control in vivo at 5 mg/kg (mouse leukemia L1210) was 90%.
For `CC[C@@]1(O)C[C@H](O[C@H]2C[C@H](NC)[C@H](O[C@H]3C[C@H](O)[C@H](O[C@H]4CCC(=O)[C@H](C)O4)[C@H](C)O3)[C@H](C)O2)c2c(cc3c(c2O)C(=O)c2c(O)cccc2C3=O)[C@H]1C(=O)OC` [MA 144-L], the Solubility (Solubility) was “Same as MA 144-G1”, the inhibition at 0.5 µg/mL [1] was 39.7% and the inhibition at 1 µg/mL [2] was 11.3%.
For `CC[C@@]1(O)C[C@H](O[C@H]2C[C@H](N(C)C)[C@H](O[C@H]3C[C@H](O)[C@H](O[C@H]4CC[C@H](O)[C@H](C)O4)[C@H](C)O3)[C@H](C)O2)c2c(cc3c(c2O)C(=O)c2c(O)cccc2C3=O)[C@H]1C(=O)OC` [MA 144-N1], the Solubility (Solubility) was “Same as MA 144-G1”, the inhibition at 0.5 µg/mL [1] was 74.4% and the inhibition at 1 µg/mL [2] was 57.4%.
For `CC[C@@]1(O)C[C@H](O[C@H]2C[C@H](N(C)C)[C@H](O[C@H]3C[C@H](O)[C@H](O)[C@H](C)O3)[C@H](C)O2)c2c(cc3c(c2O)C(=O)c2c(O)cccc2C3=O)[C@H]1C(=O)OC` [MA 144-S1, 2-deoxy-L-fucosyl-L-rhodosaminyl-aklavinone], the Solubility (Solubility) was “Same as MA 144-G1”.
In the case of `CC[C@@]1(O)C[C@H](O[C@H]2C[C@H](N(C)C)[C@H](O[C@H]3C[C@H](O)[C@H](O)[C@H](C)O3)[C@H](C)O2)c2c(cc3c(c2O)C(=O)c2c(O)ccc(O)c2C3=O)[C@H]1C(=O)OC` [MA 144-S2], the Solubility (Solubility) is reported as “Same as MA 144-G1”.
With `CC[C@@]1(O)C[C@H](O[C@H]2C[C@H](N(C)C)[C@H](O[C@H]3C[C@H](O)[C@H](O[C@H]4C[C@H](O)[C@H](O)[C@H](C)O4)[C@H](C)O3)[C@H](C)O2)c2c(cc3c(c2O)C(=O)c2c(O)cccc2C3=O)[C@H]1C(=O)OC` [MA 144-U1] the Solubility (Solubility) was “Same as MA 144-G1”.
For `CC[C@@]1(O)C[C@H](O[C@H]2C[C@H](N(C)C)[C@H](O[C@H]3C[C@H](O)[C@H](O[C@H]4C[C@H](O)[C@H](O)[C@H](C)O4)[C@H](C)O3)[C@H](C)O2)c2c(cc3c(c2O)C(=O)c2c(O)ccc(O)c2C3=O)[C@H]1C(=O)OC` [MA 144-U2], the response vs control in vivo at 0.15 mg/kg (mouse leukemia L1210) was 110%, the response vs control in vivo at 0.6 mg/kg (mouse leukemia L1210) was 135% and the response vs control in vivo at 1.25 mg/kg (mouse leukemia L1210) was 112%.
For `CC[C@@]1(O)C[C@H](O[C@H]2C[C@H](N(C)C)[C@H](O[C@H]3C[C@H](O)[C@H](O[C@H]4C=CC(=O)[C@H](C)O4)[C@H](C)O3)[C@H](C)O2)c2c(cc3c(c2O)C(=O)c2c(O)cccc2C3=O)[C@H]1C(=O)OC` [MA 144-Y], the Solubility (Solubility) was “Same as MA 144-G1” and the response vs control in vivo at 20 mg/kg (mouse leukemia L1210) was 65%.

Source: patent US4209588A, “Process for producing new antitumor anthracycline antibiotics” (Zaidan Hojin Biseibutsu Kagaku Kenkyu Kai, priority 1976, dated 1980)
